Results on 1 substance are retold here after US20240050727A1, “DEVICES FOR FORMING IN SITU MICRONEEDLES AND METHODS THEREOF” (University of Connecticut, priority 2022, published 2024).

The conditions of this data set: VEGF encapsulated in hybrid PEGDA/GelMA hydrogel.

Take “vascular endothelial growth factor [VEGF]”: the “release of biomolecules from microneedle biomaterial” value was “sustained long-term release”.
